Measurements reported in US9693992B2 (MannKind Corporation, priority 2010, dated 2017).

Protein sequences, listed by entry. Tags and fused reporters are not part of them. Residues count along the entry.
UniProt O75460, 19-977: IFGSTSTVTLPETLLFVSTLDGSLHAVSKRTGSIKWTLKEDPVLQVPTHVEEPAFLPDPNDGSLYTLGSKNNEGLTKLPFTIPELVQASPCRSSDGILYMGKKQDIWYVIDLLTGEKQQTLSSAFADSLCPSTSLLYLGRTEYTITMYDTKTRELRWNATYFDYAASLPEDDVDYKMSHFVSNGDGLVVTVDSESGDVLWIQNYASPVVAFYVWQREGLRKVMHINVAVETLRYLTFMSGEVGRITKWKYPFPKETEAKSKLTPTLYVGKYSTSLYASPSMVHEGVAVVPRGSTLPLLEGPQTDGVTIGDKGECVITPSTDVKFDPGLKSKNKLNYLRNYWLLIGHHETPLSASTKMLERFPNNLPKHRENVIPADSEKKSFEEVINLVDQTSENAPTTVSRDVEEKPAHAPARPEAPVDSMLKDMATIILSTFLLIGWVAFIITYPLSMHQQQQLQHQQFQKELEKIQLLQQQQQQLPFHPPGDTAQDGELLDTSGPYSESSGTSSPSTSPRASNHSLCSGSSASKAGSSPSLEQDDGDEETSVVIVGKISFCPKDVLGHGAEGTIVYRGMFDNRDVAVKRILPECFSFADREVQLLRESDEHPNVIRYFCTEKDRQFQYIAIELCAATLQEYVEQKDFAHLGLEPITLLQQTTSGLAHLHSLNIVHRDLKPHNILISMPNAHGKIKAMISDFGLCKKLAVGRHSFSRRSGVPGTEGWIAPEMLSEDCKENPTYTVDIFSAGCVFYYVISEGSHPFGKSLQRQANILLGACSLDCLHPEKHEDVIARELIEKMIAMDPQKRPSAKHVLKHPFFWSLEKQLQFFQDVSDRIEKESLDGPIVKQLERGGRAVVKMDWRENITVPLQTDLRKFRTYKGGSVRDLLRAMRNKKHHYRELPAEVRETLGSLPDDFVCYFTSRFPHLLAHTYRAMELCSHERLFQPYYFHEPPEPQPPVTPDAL

Biological target: IRE-1α (Homo sapiens (Human), UniProt O75460)
Assay: Cellular EC50: endogenous XBP-1 splicing in myeloma cells (MM.1s, DTT stress, RT-PCR)
Format: cell-based
Conditions: average cellular EC50, XBP-1 splicing in myeloma cells
Experimental: Human myeloma MM.1s cells are incubated with a compound for 1.25 hours before stressing the cells with 2 mM dithiothreitol (DTT). After an additional 45 minutes (2 hours total) with compound and DTT, the cells are harvested with TRIZOL® (a mono-phasic solution of phenol and guanidine isothiocyanate), and total RNA is prepared as directed by the manufacturer (Invitrogen). Human XBP-1 is amplified by RT-PCR with the following primers, which flank the 26 base unconventional intron excised by IRE-1α:
RT-PCR of unstressed (U) cells then generates the upper band. When cells are stressed (S) with the endoplasmic reticulum (ER) stressing agent DTT, IRE-1α is activated due to accumulating unfolded protein and the resulting RT-PCR product is 26 base pairs shorter. […] Compound potency reflects SAR in the in vitro enzyme assay.
Compounds which pass specificity assays are assayed for cellular EC50 using endogenous XBP-1 splicing in myeloma cells. XBP-1 is regulated through the excision of a 26 nucleotide intron from the XBP-1 mRNA by the highly specific endoribonuclease activity of IRE-1α. […] This splicing event is used to measure IRE-1α activity on XBP-1 mRNA in cells and tissues.
Briefly, compounds are incubated in the presence or absence of an ER stress agent (e.g., DTT), and the ratio of XBP-1u (unspliced) to XBP-1s (spliced) is quantified by RT-PCR. […]

COc1cc2c(C)c(CC(=O)N3CCOCC3)c(=O)oc2c(C=O)c1O [Example 167]
EC50: < 10 µM
